The values below are quoted from earlier work in paper PMC9182007, “Statistical Methods in the Study of Protein Binding and Its Relationship to Drug Bioavailability in Breast Milk” (Molecules, 2022).

The conditions of the data set: Table S6, external group (n = 38); cited from earlier work.

As to gentamycin, the M/P is 0.36.
